This passage reports IC50 results from ChEMBL document CHEMBL4765383, “Amphiphilic aminoglycosides with increased selectivity for inhibition of connexin 43 (Cx43) hemichannels” (Eur J Med Chem, 2020).

As usually defined, the IC50 is the concentration that gives 50% inhibition. Read a high IC50 as a need for much substance.

This test in a line: Inhibition of human Cx43 expressed in Escherichia coli LB2003 cells in medium containing 8 mM K+ and 10 uM IPTG by measuring cell growth after 18 hrs by plate reader.

Compound `NC[C@H]1O[C@H](O[C@H]2[C@H](O)[C@@H](O[C@H]3O[C@H](CO)[C@@H](O)[C@H](N)[C@H]3O)[C@H](N)C[C@@H]2N)[C@H](O)[C@@H](O)[C@@H]1O` [KANAMYCIN] yielded an IC50 of 48 µM.
